Patent US6375962B2, “Barrier cream comprising hexamethylenetetramine or derivative thereof” (dated 2002)

How the values were obtained:
[1] = test system: SVK-14 human keratinocyte cells
[2] = Reactivity with radiolabelled sulphur mustard in THF, TLC autoradiography; conditions: one hour after addition of 35S-SM
[3] = test system: SVK-14 human keratinocyte cells; conditions: treatment without SM

C1N2CN3CN1CN(C2)C3
increase in viability compared to SM control ([1]; 10 mM HMT singly, 72 hour time-point): 22.6%
effect on toxicity of SM (viability) ([1]; 20 mM HMT, 72 hours, p>0.05): did not alter the toxicity of SM
cellular function measured by neutral red uptake ([1]; treatment without SM, over the course of the experiment): nor alter cellular function
free H (SM) on TLC autoradiograph [2]: No free H is present
growth of the cells (crystal violet assay) compared to control [3]: did not significantly alter the growth
